The values below come from ChEMBL document CHEMBL4665788, “Development of Nonpeptidic Inverse Agonists of the Ghrelin Receptor (GHSR) Based on the 1,2,4-Triazole Scaffold” (J Med Chem, 2020).

Protein sequences, listed by entry. Tags and fused reporters are not part of them.
UniProt Q92847, whole entry: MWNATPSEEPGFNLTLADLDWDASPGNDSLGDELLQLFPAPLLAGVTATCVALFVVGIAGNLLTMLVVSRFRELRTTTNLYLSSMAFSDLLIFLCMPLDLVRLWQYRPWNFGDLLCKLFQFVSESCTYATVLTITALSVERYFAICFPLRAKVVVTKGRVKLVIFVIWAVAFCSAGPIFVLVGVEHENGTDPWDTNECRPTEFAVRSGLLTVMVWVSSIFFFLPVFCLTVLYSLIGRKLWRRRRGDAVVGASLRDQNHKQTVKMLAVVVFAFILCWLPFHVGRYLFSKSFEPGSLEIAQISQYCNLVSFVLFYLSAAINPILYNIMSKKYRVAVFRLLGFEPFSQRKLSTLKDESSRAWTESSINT

What is called Ki is the equilibrium dissociation constant of an inhibitor or competing ligand from its target. A lower Ki goes with tighter binding. What is called EC50 is the midpoint of the concentration-response curve.

The target in experiment [1] is T1, Growth hormone secretagogue receptor type 1 (Homo sapiens, UniProt Q92847). Nature of the experiment: Displacement of red-ghrelin from SNAP-tagged human GHSR expressed in HEK293 cells incubated for 3 hrs at 4 degC or for 1 hr at room temperature by HTRF assay. The experiment is classed as cell-based.
Experiment [2] deals with T1, Growth hormone secretagogue receptor type 1. In words: Inverse agonist activity at SNAP-tagged human GHSR expressed in HEK293 cells assessed as inhibition of ghrelin-induced IP1 response measured after 30 mins by HTRF assay. The experiment is classed as functional, cell-based. Background: TR-FRET usually uses a lanthanide donor and a delayed reading to cut background.

The compound `COc1ccc(Cn2c(CCc3ccccc3)nnc2[C@@H](Cc2c[nH]c3ccccc23)NC(=O)CN)cc1` returned a Ki in experiment [1] of 43 nM. Take `COc1ccc(Cn2c(CCc3ccccc3)nnc2[C@@H](Cc2c[nH]c3ccccc23)NC(=O)CN(C)C)cc1`: in experiment [1], affinity was put at a Ki of 200 nM. In turn, `COc1ccc(Cn2c(CCc3ccccc3)nnc2[C@@H](Cc2c[nH]c3ccccc23)NC(=O)CNCc2ccccc2)cc1` came in with a Ki in experiment [1] of 136 nM. For `CCN(CC)CC(=O)N[C@H](Cc1c[nH]c2ccccc12)c1nnc(CCc2ccccc2)n1Cc1ccc(OC)cc1`, the Ki in experiment [1] was 230 nM. Turning to `COc1ccc(Cn2c(CCc3ccccc3)nnc2[C@@H](Cc2c[nH]c3ccccc23)NC(=O)CNC(=O)C#N)cc1`, the affinity in experiment [1] corresponds to a Ki of 1600 nM. Same read-out and setting: the value for `COc1ccc(Cn2c(CCc3ccccc3)nnc2[C@@H](Cc2c[nH]c3ccccc23)NC(=O)CNC(=O)CN)cc1` was 130 nM; that for `COc1ccc(Cn2c(CCc3ccccc3)nnc2[C@@H](Cc2c[nH]c3ccccc23)NC(=O)CNC(=O)C(C#N)Cc2ccccc2)cc1` (some centres not stated) was 166 nM; that for `COc1ccc(Cn2c(CCc3ccccc3)nnc2[C@@H](Cc2c[nH]c3ccccc23)NC(=O)CNCC(=O)O)cc1` was 617 nM. Compound `COc1ccc(Cn2c(CCc3ccccc3)nnc2[C@@H](Cc2c[nH]c3ccccc23)NC(=O)CNC(=O)C#Cc2ccccc2)cc1` gave a Ki in experiment [1] of 130 nM. In experiment [1], `COc1ccc(Cn2c(CCc3ccccc3)nnc2[C@@H](Cc2c[nH]c3ccccc23)NC(=O)CN2CCC(N)CC2)cc1` registered an inhibition constant Ki of 220 nM.

`COc1ccc(Cn2c(CCN3CCOCC3)nnc2[C@@H](Cc2c[nH]c3ccccc23)NC(=O)CNC(=O)/C(C#N)=C/c2ccccc2)cc1`: in experiment [2], the EC50 came out at 73 nM. The compound also gave an inhibition constant (Ki) in experiment [1] of 67 nM. In experiment [1], `C=CC(=O)NCC(=O)N[C@H](Cc1c[nH]c2ccccc12)c1nnc(CCc2ccccc2)n1Cc1ccc(OC)cc1` displayed a Ki of 4 nM. Compound `COc1ccc(Cn2c(CCc3ccccc3)nnc2[C@@H](Cc2c[nH]c3ccccc23)NC(=O)CNC(=O)C(C)(C)C#N)cc1` came in with a Ki in experiment [1] of 3.4 nM.

For the compound `COc1ccc(Cn2c(CCc3ccccc3)nnc2[C@@H](Cc2c[nH]c3ccccc23)NC(=O)CNC(C)=O)cc1`, affinity in experiment [1] was put at a Ki of 10 nM.

For `COc1ccc(/C=C(\C#N)C(=O)N[C@H](Cc2c[nH]c3ccccc23)c2nnc(CCc3ccccc3)n2Cc2ccc(OC)cc2)cc1`, in experiment [1], the inhibition constant (Ki) stood at 122 nM. Take `COc1ccc(Cn2c(CCc3ccccc3)nnc2[C@@H](Cc2c[nH]c3ccccc23)NC(=O)CNC(=O)c2ccccc2)cc1`: the Ki in experiment [1] was determined as 115 nM. `COc1ccc(Cn2c(CCc3ccccc3)nnc2[C@@H](Cc2c[nH]c3ccccc23)NC(=O)CNC(=O)c2ccc(C#N)nc2)cc1` registered a Ki in experiment [1] of 6.3 nM.

The compound `COc1ccc(Cn2c(CCc3ccccc3)nnc2[C@@H](Cc2c[nH]c3ccccc23)NC(=O)CNC(=O)/C=C/c2ccc(F)cc2)cc1` registered an inhibition constant Ki in experiment [1] of 56 nM. In the case of `COc1ccc(Cn2c(CCc3ccccc3)nnc2[C@@H](Cc2c[nH]c3ccccc23)NC(=O)CNC(=O)C2(C#N)CCOCC2)cc1`, the affinity in experiment [1], expressed as Ki, was 28 nM. As to `COc1ccc(Cn2c(CCc3ccccc3)nnc2[C@@H](Cc2c[nH]c3ccccc23)NC(=O)CNC(=O)/C=C/c2ccccc2)cc1`, in experiment [1], affinity was put at a Ki of 370 nM.

Take `CNCC(=O)N[C@H](Cc1c[nH]c2ccccc12)c1nnc(CCc2ccccc2)n1Cc1ccc(OC)cc1`: the affinity in experiment [1], expressed as Ki, was 96 nM.
